Assay results reported in PubChem BioAssay AID720702 (The Scripps Research Institute Molecular Screening Center, 2013).
This is a selection; strong and weak results do not stand in their true shares. Activity calls are given as the source filed them.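 How the source made its calls: active means inhibition above the mean of all tested compounds plus 3 SD, set per campaign (cut at about 25% in these data); inactive means the rest.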

By UniProt entry, the sequences of proteins in these tests, tags left out.
UniProt O95551, whole entry: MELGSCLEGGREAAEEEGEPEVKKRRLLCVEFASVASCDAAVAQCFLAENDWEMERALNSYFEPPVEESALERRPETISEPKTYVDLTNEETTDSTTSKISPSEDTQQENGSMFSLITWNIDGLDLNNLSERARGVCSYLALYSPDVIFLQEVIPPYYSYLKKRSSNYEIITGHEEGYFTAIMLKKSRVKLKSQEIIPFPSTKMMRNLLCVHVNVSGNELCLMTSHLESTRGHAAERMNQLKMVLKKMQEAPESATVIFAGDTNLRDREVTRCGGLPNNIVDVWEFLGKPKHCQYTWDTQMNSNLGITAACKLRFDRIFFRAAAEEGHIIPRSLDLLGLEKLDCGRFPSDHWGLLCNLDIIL

biological target: Tyrosyl-DNA phosphodiesterase 2 (Homo sapiens) (UniProt O95551); experiment: blockers of TDP2 phosphodiesterase activity – biochemical, epi absorbance, recombinant enzyme, primary screen (AID 720702); details: recombinant TDP2, T5PNP hydrolysis, p-nitrophenol absorbance 415 nm; at 12.8 µM; stronger effect = higher value;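 further: 0% = DMSO with enzyme and 100% = buffer with substrate but no TDP2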
Outline: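 Incubation: 2 h at 37 °C; Test system: recombinant human TDP2; Quantity: enzyme 120 nM; Read-out basis: percent inhibition; Medium: 50 mM Tris-HCl pH 7.5 with Mg2+, KCl, DTT, BSA; Repeats: single replicate; Compound: 12.8 µM single point, 1% DMSO; Signal: epi absorbance; Reagent: 5 mM T5PNP chromogenic substrate; Benchmarks: no-enzyme high, DMSO-plus-enzyme low.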

SMILES	inhibition
O=c1[nH]c2ccccc2n1C1CCN(C(c2ccccc2OC(F)(F)F)c2nnnn2C2CCCCC2)CC1 (stereo not given)	inactive: -11%
O=C(NCC1(N2CCCCC2)CCCCC1)c1ccc(Cl)nc1	inactive: -8.94%
Cc1cc(C)cc(N(C(=O)c2ccccc2)C2CCN(C(=O)OC(C)(C)C)CC2)c1	inactive: -18.3%
O=C(NCC1(N2CCOCC2)CCCCC1)c1cc2ccccc2o1	inactive: 4.22%
O=c1[nH]c2ccccc2n1C1CCN(C(c2cc3ccccc3o2)c2nnnn2C2CCCCC2)CC1 (stereo not given)	inactive: 7.62%
O=C(OC1CN2CCC1CC2)C1c2ccccc2Oc2ccccc21 (stereo not given)	inactive: 4.23%
O=C(NCC1(N2CCCCC2)CCCCC1)c1ccc(Cl)s1	inactive: 1.98%
N#CC1(Nc2ccccc2)CCN(Cc2ccccc2)CC1	inactive: 9.83%
COc1ccc(Cl)cc1C(=O)NCC1(N2CCOCC2)CCCCC1	inactive: 0.76%
CCOC(=O)N1CCC(Nc2ccc(OC)cc2)CC1	inactive: 1.44%
CCCCn1nnnc1C(c1ccc(OC)cc1)N1CCC(n2c(=O)[nH]c3ccccc32)CC1 (stereo not given)	inactive: -1.21%
COc1ccc(C(=O)NCC2(N3CCCCC3)CCCCC2)cc1	inactive: 6.75%
CCC(c1nnnn1C1CCCC1)N1CCC(n2c(=O)[nH]c3ccccc32)CC1 (stereo not given)	inactive: 9.69%
COc1ccc(C(=O)NCC2(N3CCCCC3)CCCCC2)c(OC)c1OC	inactive: 2.24%
CC(C)(C)OC(=O)N1CCC(N(C(=O)c2ccccc2)c2ccc(F)cc2)CC1	inactive: -1.4%
O=C(NCC1(N2CCCCC2)CCCCC1)c1ccc(=O)[nH]c1	inactive: -5.32%
CCCCn1nnnc1C(c1cccs1)N1CCC(n2c(=O)[nH]c3ccccc32)CC1 (stereo not given)	inactive: 2.99%
CCCCn1nnnc1C(CC)N1CCC(n2c(=O)[nH]c3ccccc32)CC1 (stereo not given)	inactive: 8.01%
O=C(NCC1(N2CCCCC2)CCCCC1)c1cccs1	inactive: 12.7%
CSc1ccccc1C(=O)NCC1(N2CCCCC2)CCCCC1	inactive: 8.13%
Cc1cccc(NC2(C#N)CCN(Cc3ccccc3)CC2)c1	inactive: -16.3%
O=c1[nH]c2ccccc2n1C1CCN(C(c2ccccc2)c2nnnn2C2CCCCC2)CC1 (stereo not given)	inactive: -8.02%

SMILES	inhibition
COc1cc(C(=O)NCC2(N(C)C)CCCCC2)ccc1OC(F)F	inactive: -13.6%
CCOC(=O)N1CCC(Nc2cccc(C)c2)CC1	inactive: -5.7%
O=c1[nH]c2ccccc2n1C1CCN(C(c2cccc3ccccc23)c2nnnn2C2CCCC2)CC1 (stereo not given)	inactive: 7%
CC(C)(C)n1nnnc1C(c1ccccc1)N1CCC(n2c(=O)[nH]c3ccccc32)CC1 (stereo not given)	inactive: -3.54%
O=C1CCN(Cc2ccccc2)CC1	inactive: 3.62%
CCOc1ccc(C)cc1CN(CCCl)CCCl	inactive: -6.3%
O=C(NCC1(N2CCCCC2)CCCCC1)c1ccc(F)cc1	inactive: 7.59%
CCCCOc1ccc(C(=O)NCC2(N3CCOCC3)CCCCC2)cc1	inactive: 14.2%
CCCCn1nnnc1C(c1cc2ccccc2o1)N1CCC(n2c(=O)[nH]c3ccccc32)CC1 (stereo not given)	inactive: -0.49%
O=P1(N(CCCl)CCCl)SCCCS1	inactive: -9.88%
CCOC(=O)N1CCC(Nc2ccc(F)cc2)CC1	inactive: -21.4%
COc1ccc(NC2CCN(CCc3ccccc3)CC2)c(OC)c1	inactive: 2.22%
O=C(NCC1(N2CCCCC2)CCCCC1)c1cccc(C(F)(F)F)c1	inactive: -6.32%
O=C(NCC1(N2CCOCC2)CCCCC1)c1cc(=O)[nH]c2ccccc12	inactive: -0.75%
COc1cc(C(=O)NCC2(N3CCCCC3)CCCCC2)ccc1OC(F)F	inactive: 10.5%
CCCCn1nnnc1C(c1cccc2ccccc12)N1CCC(n2c(=O)[nH]c3ccccc32)CC1 (stereo not given)	inactive: 2.87%
COc1ccc(NC2CCN(C(=O)OC(C)(C)C)CC2)cc1	inactive: -22%
CC(C)c1ccc(C(=O)NCC2(N3CCOCC3)CCCCC2)cc1	inactive: -8.96%
CN1CCN(CCOC(=O)C(O)(c2ccccc2)c2ccccc2)CC1	inactive: -0.56%
CC(C)(C)n1nnnc1C(c1ccccc1OC(F)(F)F)N1CCC(n2c(=O)[nH]c3ccccc32)CC1 (stereo not given)	inactive: 6.43%
O=C(NCC1(N2CCCCC2)CCCCC1)c1ccc(OC(F)F)cc1	inactive: -16.1%
CCN1CCC(Nc2ccc(Cl)cc2)CC1	inactive: -6.35%

SMILES	inhibition
N#CC1(Nc2ccccc2)CCN(CCc2ccccc2)CC1	inactive: 10.5%
O=c1[nH]c2ccccc2n1C1CCN(C(c2ccccc2OC(F)(F)F)c2nnnn2C2CCCC2)CC1 (stereo not given)	inactive: -2.02%
O=C(NCC1(N2CCCCC2)CCCCC1)c1cccc([N+](=O)[O-])c1	inactive: -4.94%
CSc1ccc(C(=O)NCC2(N3CCOCC3)CCCCC2)cc1	inactive: -22.7%
O=C(NCC1(N2CCCCC2)CCCCC1)c1cncc(Br)c1	inactive: -3.14%
CN1CCC(Nc2cccc(F)c2)CC1	inactive: 18.4%
COc1ccc(C(c2nnnn2C2CCCC2)N2CCC(n3c(=O)[nH]c4ccccc43)CC2)cc1 (stereo not given)	inactive: -7.24%
Cc1ccc(C(=O)NCC2(N(C)C)CCCCC2)o1	inactive: -7.39%
CCCOc1ccc(C(=O)NCC2(N(C)C)CCCCC2)cc1OC	inactive: -6.9%
CC(C)c1ccc(NC2CCN(C(=O)OC(C)(C)C)CC2)cc1	inactive: -1.65%
COC(=O)C1(Nc2ccccc2)CCN(Cc2ccccc2)CC1	inactive: 4.85%
COc1ccc(CN(CCCl)CCCl)cc1Cl	inactive: -2.08%
CN(C)c1cccc(C(=O)NCC2(N3CCCCC3)CCCCC2)c1	inactive: -1.45%
COc1cc(OC)c(C(=O)NCC2(N(C)C)CCCCC2)cc1OC	inactive: -9.58%
O=C(NCC1(N2CCOCC2)CCCCC1)c1cc(F)c(F)cc1Cl	inactive: 0.25%
CCC(c1nnnn1C(C)(C)C)N1CCC(n2c(=O)[nH]c3ccccc32)CC1 (stereo not given)	inactive: 10.9%
CCCCn1nnnc1C(c1ccnc2ccccc12)N1CCC(n2c(=O)[nH]c3ccccc32)CC1 (stereo not given)	inactive: 3.1%
COc1cccc(C(c2nnnn2C(C)(C)C)N2CCC(n3c(=O)[nH]c4ccccc43)CC2)c1OC (stereo not given)	inactive: -12.4%
CCOC(=O)N1CCC(Nc2ccc(C)cc2)CC1	inactive: -7.37%
N/C(=N\O)c1c(N)no[n+]1[O-]	inactive: -0.64%
O=C(OC1CN2CCC1CC2)C1c2ccccc2C=Cc2ccccc21 (stereo not given)	inactive: 9.47%
O=c1[nH]c2ccccc2n1C1CCN(C(c2cccs2)c2nnnn2C2CCCC2)CC1 (stereo not given)	inactive: -6.79%

SMILES	inhibition
CCCCn1nnnc1C(c1cccc(OC)c1OC)N1CCC(n2c(=O)[nH]c3ccccc32)CC1 (stereo not given)	inactive: -2.14%
CCCCn1nnnc1C(c1ccccc1)N1CCC(n2c(=O)[nH]c3ccccc32)CC1 (stereo not given)	inactive: -3.46%
COc1cc(C(=O)NCC2(N3CCOCC3)CCCCC2)cc(OC)c1C	inactive: -16.9%
O=C(NCC1(N2CCOCC2)CCCCC1)c1cc(Br)ccc1Cl	inactive: -10.4%
O=c1[nH]c2ccccc2n1C1CCN(C(c2cccs2)c2nnnn2C2CCCCC2)CC1 (stereo not given)	inactive: -1.35%
NC(=O)C1(Nc2ccccc2)CCN(Cc2ccccc2)CC1	inactive: -6.06%
COc1ccc(C(=O)NCC2(N3CCOCC3)CCCCC2)cc1OC	inactive: -6.73%
O=c1[nH]c2ccccc2n1C1CCN(C(c2ccnc3ccccc23)c2nnnn2C2CCCC2)CC1 (stereo not given)	inactive: -1.18%
CN(C)C1(CNC(=O)c2cccc(C#N)c2)CCCCC1	inactive: 0.99%
c1ccc(CN2CCC(Nc3ccccc3)CC2)cc1	inactive: -3.14%
C/C(N)=N\P(=O)(Oc1ccccc1)Oc1ccccc1	inactive: -5.55%
CCCN1CCC(Nc2cc(OC)cc(OC)c2)CC1	inactive: -8.77%
O=c1[nH]c2ccccc2n1C1CCN(C(c2ccccc2)c2nnnn2C2CCCC2)CC1 (stereo not given)	inactive: 1.39%
Cc1cc(N(CCCl)CCCl)ccc1C=O	inactive: 4.15%
CC(C)(C)n1nnnc1C(c1cccc2ccccc12)N1CCC(n2c(=O)[nH]c3ccccc32)CC1 (stereo not given)	inactive: 5.5%
N#Cc1ccc(C(=O)NCC2(N3CCCCC3)CCCCC2)cc1	inactive: -2.16%
CC(C)(C)OC(=O)N1CCC(N(C(=O)c2ccccc2)c2ccc(Cl)cc2)CC1	inactive: -17.6%
Cc1ccccc1NC1(C#N)CCN(Cc2ccccc2)CC1	inactive: 6.5%
CC(C)(C)n1nnnc1C(c1ccnc2ccccc12)N1CCC(n2c(=O)[nH]c3ccccc32)CC1 (stereo not given)	inactive: 0.31%
COc1ccc(C(c2nnnn2C2CCCCC2)N2CCC(n3c(=O)[nH]c4ccccc43)CC2)cc1 (stereo not given)	inactive: 1.94%
CCN1CCC(Nc2cccc(F)c2)CC1	inactive: 0.7%
O=C(NCC1(N2CCCCC2)CCCCC1)c1ccco1	inactive: -4.63%

SMILES	inhibition
Cn1c(=O)[nH]cc(N(CCCl)CCCl)c1=O	inactive: 16.3%
CN(C)c1ccc(C(=O)NCC2(N3CCCCC3)CCCCC2)cc1	inactive: -6.42%
CC(=O)N(c1ccccc1)C1CCNCC1	inactive: 3.53%
COc1cccc(C(c2nnnn2C2CCCCC2)N2CCC(n3c(=O)[nH]c4ccccc43)CC2)c1OC (stereo not given)	inactive: 1.56%
CCC(c1nnnn1C1CCCCC1)N1CCC(n2c(=O)[nH]c3ccccc32)CC1 (stereo not given)	inactive: -9.82%
O=c1[nH]c2ccccc2n1C1CCN(C(c2ccnc3ccccc23)c2nnnn2C2CCCCC2)CC1 (stereo not given)	inactive: -4.03%
COc1cc(OC)cc(C(=O)NCC2(N3CCCCC3)CCCCC2)c1	inactive: 8.46%
Cc1ccc(C(=O)NCC2(N3CCCCC3)CCCCC2)o1	inactive: 1.51%
Fc1ccccc1NC1CCN(Cc2ccccc2)CC1	inactive: -4.52%
Cc1ccc(NC2(C#N)CCN(Cc3ccccc3)CC2)cc1	inactive: -12.3%
COc1cccc(C(=O)N(c2cc(C)cc(C)c2)C2CCN(C(=O)OC(C)(C)C)CC2)c1	inactive: 12%
COc1cc(OC)cc(C(=O)NCC2(N3CCOCC3)CCCCC2)c1	inactive: 1.14%
COc1cccc(C(c2nnnn2C2CCCC2)N2CCC(n3c(=O)[nH]c4ccccc43)CC2)c1OC (stereo not given)	inactive: -1.35%
CCC(CO)(C(=O)OC1CN2CCC1CC2)c1ccccc1 (stereo not given)	inactive: -7.87%
CN1CCC(Nc2ccc(Cl)cc2)CC1	inactive: -6.06%
CCOc1ncccc1C(=O)NCC1(N2CCOCC2)CCCCC1	inactive: -5.03%
CN1CCC(Nc2ccc(F)c(Cl)c2)CC1	inactive: 15.7%
CC(C)(C)OC(=O)N1CCC(Nc2ccccc2)CC1	inactive: 0.73%
NN(c1ccccc1)C1CCN(CCc2ccccc2)CC1	inactive: 0.01%
O=C(O)C1(Nc2ccccc2)CCN(Cc2ccccc2)CC1	inactive: 10.5%
CCCOc1ccc(C(=O)NCC2(N(C)C)CCCCC2)cc1	inactive: -2.81%
O=c1[nH]c2ccccc2n1C1CCN(C(c2cc3ccccc3o2)c2nnnn2C2CCCC2)CC1 (stereo not given)	inactive: -10.1%
